# Data as given in patent US20210283220A1, “ANTIBODY MOLECULE-DRUG CONJUGATES AND USES THEREOF” (priority 2017, published 2021).
# How the values were obtained:
# red blood cells = assay: Red blood cell hemolysis assay (PLC, MLC); type: cell-based; settings: for PLC: partial lytic concentration, hemolytic activity
# 293T cells = assay: Cytotoxicity, cell viability using 293T cells; type: cell-based
substance,measurement,setting,value
ALWKTLLKKVLKAAAKGGGGSGGGGS [peptide 30],PLC,red blood cells,512 µg/mL
GAFGNFLKGVAKKAGLKILSIAQCKLFGTC [peptide 70],PLC,red blood cells,8 µg/mL
GGG-D-Dab-cyclic(L-Dab-L-Dab-D-Leu-L-Phe-L-Dab-L-Dab-L-Leu) [GGG-Octapeptin],Hemolysis PLC,red blood cells; concentration that led to 50% red blood cell lysis,>128 µg/mL
same,Hemolysis MLC,red blood cells; concentration that led to 100% red blood cell lysis,>128 µg/mL
same,Hemolysis MLC/MIC,red blood cells; ratio,>64
same,Hemolysis PLC/MIC,red blood cells; ratio,>64
GGGGRFKRFRKKFKKLFKKLSPVIPLLHLG [Peptide P295],Cytotoxicity,293T cells,100 µg/mL
GGGKFFRKLKKSVKKRAKEFFKKPRVIGVSIPF [Peptide P297],Cytotoxicity,293T cells,>1000 µg/mL
GIGKFLKKAKKFGKAFVKILKKGGGGSGGGGS [peptide 24],PLC,red blood cells,512 µg/mL
KKLLKWLKKLL [peptide 126],PLC,red blood cells,640 µg/mL
